Experimental data: BindingDB's records for US10172843

Sequences of proteins named here, by UniProt entry; tags and fusion partners are left off. Residues count along the entry.
UniProt P25774, 115-331 limits assumed: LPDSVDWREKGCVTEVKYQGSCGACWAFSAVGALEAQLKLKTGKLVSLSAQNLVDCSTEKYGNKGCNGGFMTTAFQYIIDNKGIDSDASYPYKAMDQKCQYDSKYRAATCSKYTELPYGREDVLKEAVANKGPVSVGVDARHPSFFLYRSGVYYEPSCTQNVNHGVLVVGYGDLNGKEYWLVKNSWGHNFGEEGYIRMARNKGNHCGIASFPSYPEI

Each compound was assayed against Cathepsin S (Homo sapiens, UniProt P25774) (assay: Cathepsin Enzyme Inhibition Assay).
Method: Enzyme activity is measured by observing the increase in fluorescence intensity caused by cleavage of a peptide substrate containing a fluorophore whose emission is quenched in the intact peptide.Assay buffer: 100 mM potassium phosphate pH 6.5, EDTA-Na 5 mM, Triton X-100 0.001%, DTT 5 mM.Enzymes (all at 1 nM): human and mouse Cathepsin S,

With `Cn1nc(CN2CCC(n3c(=O)n(C)c4ccccc43)CC2)nc1-c1ccc(C(F)(F)F)cc1` as the compound, how does the IC50 read?
The IC50 was 1380 nM.

`Cc1sc(-c2ccc(C(F)(F)F)cc2)nc1CN1CCC(n2c(=O)n(C)c3ccccc32)CC1` was tested. Which IC50 did it give?
Its IC50 is 2040 nM.

Which IC50 does the source give for `Cc1[nH]c(-c2ccc(Cl)cc2)nc1CN1CCC(n2c(=O)[nH]c3cc(Cl)ccc32)CC1` here?
Its IC50 is 1040 nM.

Which IC50 does the source give for `Cc1[nH]c(-c2ccc(S(C)(=O)=O)cc2)nc1CN1CCC(n2c(=O)n(C)c3ccccc32)CC1` here?
The IC50 was 175 nM.

Which IC50 does the source give for `Cn1nc(-c2ccc(C(F)(F)F)cc2)nc1CN1CCC(n2c(=O)n(C)c3ccccc32)CC1` here?
The IC50 was 585 nM.

How did the IC50 turn out when `Cc1cn(-c2ccc(C(F)(F)F)cc2)nc1CN1CCC(n2c(=O)n(C)c3ccccc32)CC1` was run?
The IC50 was 1670 nM.
